Test results reported in PMC9569420 (Communications Biology, 2022).

Tests used:
HaCat cells = experiment: viability of confluent cells; format: cell-based, human; conditions: 10 μM, 24 h, replicates (Fig 1c source data)
MLK1/MAP3K9 = target: T1, MLK1/MAP3K9 (Homo sapiens, UniProt P80192); experiment: HotSpot kinase assay; format: biochemical; conditions: 10µM
T1 construct: purchased Reaction Biology Corporation

MEK1 = target: T2, MEK1 (Homo sapiens, UniProt Q02750); experiment: HotSpot kinase assay; format: biochemical; conditions: 10µM
T2 construct: purchased Reaction Biology Corporation

WNK3 = target: T3, WNK3 (Homo sapiens, UniProt Q9BYP7); experiment: HotSpot kinase assay; format: biochemical; conditions: 10µM
T3 construct: purchased Reaction Biology Corporation

SNARK/NUAK2 = target: T4, SNARK/NUAK2 (Homo sapiens, UniProt Q9H093); experiment: HotSpot kinase assay; format: biochemical; conditions: 10µM
T4 construct: purchased Reaction Biology Corporation

EPHB3 = target: T5, EPHB3 (Homo sapiens, UniProt P54753); experiment: HotSpot kinase assay; format: biochemical; conditions: 10µM
T5 construct: purchased Reaction Biology Corporation

EGFR = target: T6, EGFR (Homo sapiens, UniProt P00533); format: biochemical; conditions: 10µM
T6 construct: purchased Reaction Biology Corporation

ALK = target: T7, ALK (Homo sapiens, UniProt Q9UM73); experiment: HotSpot kinase assay; format: biochemical; conditions: 10µM
T7 construct: purchased Reaction Biology Corporation

NLK = target: T8, NLK (Homo sapiens, UniProt Q9UBE8); experiment: HotSpot kinase assay; format: biochemical; conditions: 10µM
T8 construct: purchased Reaction Biology Corporation

MST3/STK24 = MST3/STK24 (Homo sapiens, UniProt Q9Y6E0); experiment: HotSpot kinase assay; conditions: 10µM
CDK17/cyclin Y (PCTK2) = target: T9, CDK17/cyclin Y (PCTK2) (Homo sapiens, UniProt Q00537); experiment: HotSpot kinase assay; format: biochemical; conditions: 10µM
T9 construct: purchased Reaction Biology Corporation

CDK5/P25 = target: T10, CDK5/P25 (Homo sapiens, UniProt Q00535); experiment: HotSpot kinase assay; format: biochemical; conditions: 10µM
T10 construct: purchased Reaction Biology Corporation

HIPK3 = target: T11, HIPK3 (Homo sapiens, UniProt Q9H422); experiment: HotSpot kinase assay; format: biochemical; conditions: 10µM
T11 construct: purchased Reaction Biology Corporation

TNIK = target: T12, TNIK (Homo sapiens, UniProt Q9UKE5); experiment: HotSpot kinase assay; format: biochemical; conditions: 10µM
T12 construct: purchased Reaction Biology Corporation

STK39/STLK3 = target: T13, STK39/STLK3 (Homo sapiens, UniProt Q9UEW8); experiment: HotSpot kinase assay; format: biochemical; conditions: 10µM
T13 construct: purchased Reaction Biology Corporation

SRPK1 = target: T14, SRPK1 (Homo sapiens, UniProt Q96SB4); experiment: HotSpot kinase assay; format: biochemical; conditions: 10µM
T14 construct: purchased Reaction Biology Corporation

ERN1/IRE1 = target: T15, ERN1/IRE1 (Homo sapiens, UniProt O75460); experiment: HotSpot kinase assay; format: biochemical; conditions: 10µM
T15 construct: purchased Reaction Biology Corporation

BRSK2 = target: T16, BRSK2 (Homo sapiens, UniProt Q8IWQ3); experiment: HotSpot kinase assay; format: biochemical; conditions: 10µM
T16 construct: purchased Reaction Biology Corporation

STK33 = target: T17, STK33 (Homo sapiens, UniProt Q9BYT3); experiment: HotSpot kinase assay; format: biochemical; conditions: 10µM
T17 construct: purchased Reaction Biology Corporation

LYN = target: T18, LYN (Homo sapiens, UniProt P07948); experiment: HotSpot kinase assay; format: biochemical; conditions: 10µM
T18 construct: purchased Reaction Biology Corporation

EPHA8 = target: T19, EPHA8 (Homo sapiens, UniProt P29322); experiment: HotSpot kinase assay; format: biochemical; conditions: 10µM
T19 construct: purchased Reaction Biology Corporation

PKCnu/PRKD3 = target: T20, PKCnu/PRKD3 (Homo sapiens, UniProt O94806); experiment: HotSpot kinase assay; format: biochemical; conditions: 10µM
T20 construct: purchased Reaction Biology Corporation

EPHA7 = target: T21, EPHA7 (Homo sapiens, UniProt Q15375); experiment: HotSpot kinase assay; format: biochemical; conditions: 10µM
T21 construct: purchased Reaction Biology Corporation

AMPK(A2/B2/G3) = target: T22, AMPK(A2/B2/G3) (Homo sapiens, UniProt P54646); experiment: HotSpot kinase assay; format: biochemical; conditions: 10µM
T22 construct: purchased Reaction Biology Corporation

CDK9/cyclin K = CDK9/cyclin K (Homo sapiens, UniProt P50750); experiment: biochemical; conditions: read-out: % Enzyme Activity (relative to DMSO controls), 10µM
WNK2 = target: T23, WNK2 (Homo sapiens, UniProt Q9Y3S1); experiment: HotSpot kinase assay; format: biochemical; conditions: 10µM
T23 construct: purchased Reaction Biology Corporation

HCK = target: T24, HCK (Homo sapiens, UniProt P08631); experiment: HotSpot kinase assay; format: biochemical; conditions: 10µM
T24 construct: purchased Reaction Biology Corporation

FGFR1 = target: T25, FGFR1 (Homo sapiens, UniProt P11362); experiment: HotSpot kinase assay; format: biochemical; conditions: 10µM
T25 construct: purchased Reaction Biology Corporation

PKA = target: T26, PKA (Homo sapiens, UniProt P17612); experiment: HotSpot kinase assay; format: biochemical; conditions: 10µM
T26 construct: purchased Reaction Biology Corporation

ERBB4/HER4 = target: T27, ERBB4/HER4 (Homo sapiens, UniProt Q15303); experiment: HotSpot kinase assay; format: biochemical; conditions: 10µM
T27 construct: purchased Reaction Biology Corporation

PKCb1 = target: T28, PKCb1 (Homo sapiens, UniProt P05771); format: biochemical; conditions: 10µM
T28 construct: purchased Reaction Biology Corporation

TEC = target: T29, TEC (Homo sapiens, UniProt P42680); experiment: HotSpot kinase assay; format: biochemical; conditions: 10µM
T29 construct: purchased Reaction Biology Corporation

EPHB2 = target: T30, EPHB2 (Homo sapiens, UniProt P29323); experiment: HotSpot kinase assay; format: biochemical; conditions: 10µM
T30 construct: purchased Reaction Biology Corporation

PIM3 = target: T31, PIM3 (Homo sapiens, UniProt Q86V86); experiment: HotSpot kinase assay; format: biochemical; conditions: 10µM
T31 construct: purchased Reaction Biology Corporation

MARK4 = target: T32, MARK4 (Homo sapiens, UniProt Q96L34); experiment: HotSpot kinase assay; format: biochemical; conditions: 10µM
T32 construct: purchased Reaction Biology Corporation

FGFR4 = target: T33, FGFR4 (Homo sapiens, UniProt P22455); experiment: HotSpot kinase assay; format: biochemical; conditions: 10µM
T33 construct: purchased Reaction Biology Corporation

VRK2 = target: T34, VRK2 (Homo sapiens, UniProt Q86Y07); experiment: HotSpot kinase assay; format: biochemical; conditions: 10µM
T34 construct: purchased Reaction Biology Corporation

PDK1/PDPK1 = target: T35, PDK1/PDPK1 (Homo sapiens, UniProt O15530); format: biochemical; conditions: 10µM
T35 construct: purchased Reaction Biology Corporation

LKB1 = target: T36, LKB1 (Homo sapiens, UniProt Q15831); experiment: HotSpot kinase assay; format: biochemical; conditions: 10µM
T36 construct: purchased Reaction Biology Corporation

MSK1/RPS6KA5 = target: T37, MSK1/RPS6KA5 (Homo sapiens, UniProt O75582); experiment: HotSpot kinase assay; format: biochemical; conditions: 10µM
T37 construct: purchased Reaction Biology Corporation

IRAK1 = target: T38, IRAK1 (Homo sapiens, UniProt P51617); experiment: HotSpot kinase assay; format: biochemical; conditions: 10µM
T38 construct: purchased Reaction Biology Corporation

MEK5 = target: T39, MEK5 (Homo sapiens, UniProt Q13163); experiment: HotSpot kinase assay; format: biochemical; conditions: 10µM
T39 construct: purchased Reaction Biology Corporation

NEK9 = target: T40, NEK9 (Homo sapiens, UniProt Q8TD19); experiment: HotSpot kinase assay; format: biochemical; conditions: 10µM
T40 construct: purchased Reaction Biology Corporation

Compound: CO[C@@H]1[C@H](N(C)C(=O)CCC(=O)NCc2cn(CCCS(=O)(=O)O)nn2)C[C@H]2O[C@]1(C)n1c3ccccc3c3c4c(c5c6ccccc6n2c5c31)C(=O)NC4 [CIMSS]
- viability, odu as a percentage of the DMSO control (HaCat cells): 114%
- % Enzyme Activity (relative to DMSO controls) (MLK1/MAP3K9): 4.01%
- % Enzyme Activity (relative to DMSO controls) (MEK1): 75.35%
- % Enzyme Activity (relative to DMSO controls) (WNK3): 64.44%
- % Enzyme Activity (relative to DMSO controls) (SNARK/NUAK2): 1.92%
- % Enzyme Activity (relative to DMSO controls) (EPHB3): 28.88%
- % Enzyme Activity (relative to DMSO controls) (EGFR): 16.47%
- % Enzyme Activity (relative to DMSO controls) (ALK): 3.76%
- % Enzyme Activity (relative to DMSO controls) (NLK): 68.44%
- % Enzyme Activity (relative to DMSO controls) (MST3/STK24): 15.83%
- % Enzyme Activity (relative to DMSO controls) (CDK17/cyclin Y (PCTK2)): 52.31%
- % Enzyme Activity (relative to DMSO controls) (CDK5/P25): 6.97%
- % Enzyme Activity (relative to DMSO controls) (HIPK3): 13.73%
- % Enzyme Activity (relative to DMSO controls) (TNIK): 1.13%
- % Enzyme Activity (relative to DMSO controls) (STK39/STLK3): 18.27%
- % Enzyme Activity (relative to DMSO controls) (SRPK1): 8.28%
- % Enzyme Activity (relative to DMSO controls) (ERN1/IRE1): 8.17%
- % Enzyme Activity (relative to DMSO controls) (BRSK2): 1.53%
- % Enzyme Activity (relative to DMSO controls) (STK33): 8.22%
- % Enzyme Activity (relative to DMSO controls) (LYN): 1.83%
- % Enzyme Activity (relative to DMSO controls) (EPHA8): 69.23%
- % Enzyme Activity (relative to DMSO controls) (PKCnu/PRKD3): 11.12%
- % Enzyme Activity (relative to DMSO controls) (EPHA7): 6.08%
- % Enzyme Activity (relative to DMSO controls) (AMPK(A2/B2/G3)): 0.61%
- remaining activity at 10 µM (CDK9/cyclin K): 11.4%
- % Enzyme Activity (relative to DMSO controls) (WNK2): 69.29%
- % Enzyme Activity (relative to DMSO controls) (HCK): 6.46%
- % Enzyme Activity (relative to DMSO controls) (FGFR1): 6.17%
- % Enzyme Activity (relative to DMSO controls) (PKA): 6.28%
- % Enzyme Activity (relative to DMSO controls) (ERBB4/HER4): 24.80%
- % Enzyme Activity (relative to DMSO controls) (PKCb1): 2.30%
- % Enzyme Activity (relative to DMSO controls) (TEC): 19.75%
- % Enzyme Activity (relative to DMSO controls) (EPHB2): 27.11%
- % Enzyme Activity (relative to DMSO controls) (PIM3): 2.18%
- % Enzyme Activity (relative to DMSO controls) (MARK4): 0.72%
- % Enzyme Activity (relative to DMSO controls) (FGFR4): 4.30%
- % Enzyme Activity (relative to DMSO controls) (VRK2): 81.67%
- % Enzyme Activity (relative to DMSO controls) (PDK1/PDPK1): 4.20%
- % Enzyme Activity (relative to DMSO controls) (LKB1): 37.39%
- % Enzyme Activity (relative to DMSO controls) (MSK1/RPS6KA5): 1.49%
- % Enzyme Activity (relative to DMSO controls) (IRAK1): 3.16%
- % Enzyme Activity (relative to DMSO controls) (MEK5): 40.06%
- % Enzyme Activity (relative to DMSO controls) (NEK9): 2.70%
